For orientation: IC50 means the midpoint of a concentration-inhibition curve.

By UniProt entry, the sequences of proteins in these tests, tags left out. Residues count along the entry.
UniProt P01116, 1-185 isoform P01116-2 G12V: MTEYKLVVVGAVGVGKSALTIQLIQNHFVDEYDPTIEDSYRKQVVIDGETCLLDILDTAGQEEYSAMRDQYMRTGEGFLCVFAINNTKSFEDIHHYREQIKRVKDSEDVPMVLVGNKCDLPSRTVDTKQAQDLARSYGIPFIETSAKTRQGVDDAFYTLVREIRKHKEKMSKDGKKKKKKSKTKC

The record followed here is patent US20170112896A1, “SMALL MOLECULE RAC OR RHO INHIBITORS” (Ohio State Innovation Foundation, priority 2014, published 2017).

The target in this assay is T1, Ras(G12V)-Raf RBD interaction (Homo sapiens, UniProt P01116, G12V).
T1 construct: The G12V mutant K-Ras (amino acids 1-185) was recombinantly fused to glutathione 5-transferase (GST) at its N-terminus; GST (N, cleaved yes); made in house; host or cells: Escherichia coli BL21
As to the kind of experiment: HTRF assay, inhibition of Ras-Raf RBD interaction. The format is binding. Particulars: unlabeled peptide.

Turning to `CCCC[C@H]1NC(=O)[C@H](Cc2ccc(F)cc2)NC(=O)[C@H](CCCNC(=N)N)NC(=O)[C@@H](Cc2ccc3ccccc3c2)NC(=O)[C@H](CCCNC(=N)N)NC(=O)[C@H](CCCNC(=N)N)NC(=O)[C@H](CCCNC(=N)N)NC(=O)[C@@H](C)NC(=O)[C@H]([C@@H](C)O)NC(=O)[C@H](Cc2cn(Cc3ccccc3)cn2)NC(=O)[C@H](CCC(N)=O)NC1=O` [Cyclorasin 9A7], inhibition was half-maximal at 440 ± 160 nM (IC50).
